The source of these data is patent publication US5663295A, “Opioid peptides” (Biomeasure Inc., priority 1994, dated 1997).

Sequences of proteins named here, by UniProt entry; tags and fusion partners are left off.
UniProt P33535, whole entry: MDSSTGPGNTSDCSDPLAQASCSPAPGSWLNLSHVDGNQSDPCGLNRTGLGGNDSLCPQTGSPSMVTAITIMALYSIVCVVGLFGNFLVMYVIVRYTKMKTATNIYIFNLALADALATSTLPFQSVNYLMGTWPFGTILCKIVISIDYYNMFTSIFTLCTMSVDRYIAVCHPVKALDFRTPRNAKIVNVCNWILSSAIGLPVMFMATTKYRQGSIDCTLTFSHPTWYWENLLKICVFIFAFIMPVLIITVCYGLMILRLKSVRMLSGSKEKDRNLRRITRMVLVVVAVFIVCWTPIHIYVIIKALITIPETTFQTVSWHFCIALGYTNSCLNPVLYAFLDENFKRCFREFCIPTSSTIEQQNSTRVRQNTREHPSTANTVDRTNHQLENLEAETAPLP

The target in this assay is Mu Opiate Receptors (Rattus norvegicus, UniProt P33535). The experiment in a line: Effect of sodium ion on binding to mu opiate receptors in vitro. The arrangement: species or system guinea-pig or rat.

Where two headings read alike, the source gives them in different places.

[D-Ala^2, D-Leu^3 ] enkephalin: the inhibition constant Ki reads like this: (100 mM NaCl, read-out: Ki, mu opiate receptor, +NaCl) 560 nM; (without NaCl, read-out: Ki, mu opiate receptor, -NaCl) 15 nM. Under “Ki ratio without and with 100 mM NaCl”, the “-NaCl/+NaCl (ratio of Ki)” value came out at 37.
